The results in this text go back to ChEMBL document CHEMBL4808148, “HDAC6 screening dataset using tau-based substrate in an enzymatic assay yields selective inhibitors and activators” (2021).

Shown are results outside the selection of strong results, which stands elsewhere.

This test concerns the target T1, Protein deacetylase HDAC6 (Homo sapiens) (UniProt Q9UBN7).
T1 sequence (whole entry): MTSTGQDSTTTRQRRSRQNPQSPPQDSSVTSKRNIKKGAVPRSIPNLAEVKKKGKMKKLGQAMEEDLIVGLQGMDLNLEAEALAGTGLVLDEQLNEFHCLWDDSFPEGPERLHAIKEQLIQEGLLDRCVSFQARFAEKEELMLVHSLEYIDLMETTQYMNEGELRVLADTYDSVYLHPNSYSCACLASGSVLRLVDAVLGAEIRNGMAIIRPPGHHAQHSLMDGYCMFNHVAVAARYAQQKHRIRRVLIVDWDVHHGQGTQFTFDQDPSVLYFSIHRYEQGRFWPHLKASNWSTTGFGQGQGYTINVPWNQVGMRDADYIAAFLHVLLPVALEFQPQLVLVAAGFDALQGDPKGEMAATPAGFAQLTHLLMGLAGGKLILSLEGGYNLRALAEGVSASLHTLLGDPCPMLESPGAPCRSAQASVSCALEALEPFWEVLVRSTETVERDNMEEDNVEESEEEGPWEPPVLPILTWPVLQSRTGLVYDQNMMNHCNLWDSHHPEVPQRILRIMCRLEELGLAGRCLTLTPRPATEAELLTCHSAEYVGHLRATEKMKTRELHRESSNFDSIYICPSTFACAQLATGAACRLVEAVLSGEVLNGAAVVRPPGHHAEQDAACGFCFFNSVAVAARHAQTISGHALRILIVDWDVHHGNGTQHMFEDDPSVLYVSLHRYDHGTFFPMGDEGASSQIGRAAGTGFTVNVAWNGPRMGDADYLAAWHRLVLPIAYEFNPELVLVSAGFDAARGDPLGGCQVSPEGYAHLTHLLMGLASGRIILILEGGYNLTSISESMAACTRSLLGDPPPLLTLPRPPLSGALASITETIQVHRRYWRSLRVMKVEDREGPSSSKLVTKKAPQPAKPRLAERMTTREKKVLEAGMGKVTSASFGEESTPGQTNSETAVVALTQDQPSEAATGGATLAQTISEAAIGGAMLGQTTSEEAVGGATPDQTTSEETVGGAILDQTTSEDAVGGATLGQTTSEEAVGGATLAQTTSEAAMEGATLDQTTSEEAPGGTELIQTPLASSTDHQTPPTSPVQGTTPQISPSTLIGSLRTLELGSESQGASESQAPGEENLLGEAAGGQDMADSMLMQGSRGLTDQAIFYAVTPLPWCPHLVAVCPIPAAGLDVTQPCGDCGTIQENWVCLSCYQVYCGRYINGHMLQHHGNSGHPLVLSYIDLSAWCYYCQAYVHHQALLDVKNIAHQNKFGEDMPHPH
The conditions noted are these: at 10 µM.
Regarding `CC(Cc1ccc(O)cc1)NCC(O)c1cc(O)cc(O)c1` (configuration not stated), the inhibition is -0.38%.

As for `COc1ccc(CC(C)NCC(O)c2ccc(O)c(NC=O)c2)cc1` (configuration not stated), the inhibition is -7.28%.

The inhibition is the drop in the measured response relative to a control, in per cent.
